{
  "sequences": {"note": "Protein sequences, listed by entry. Tags and fused reporters are not part of them. Lines headed by an entry give the natural chain unless they say otherwise; changes in a name come on top.", "UniProt P41145": "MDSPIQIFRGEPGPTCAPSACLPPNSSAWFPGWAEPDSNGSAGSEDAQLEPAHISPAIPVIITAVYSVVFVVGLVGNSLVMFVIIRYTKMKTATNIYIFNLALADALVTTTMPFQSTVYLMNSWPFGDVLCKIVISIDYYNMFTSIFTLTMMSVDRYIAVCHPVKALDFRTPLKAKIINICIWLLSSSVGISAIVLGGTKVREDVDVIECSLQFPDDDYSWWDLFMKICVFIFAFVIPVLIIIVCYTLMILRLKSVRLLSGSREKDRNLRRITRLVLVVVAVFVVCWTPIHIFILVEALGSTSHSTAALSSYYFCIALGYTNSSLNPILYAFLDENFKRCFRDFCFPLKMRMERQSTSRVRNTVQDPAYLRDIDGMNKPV", "UniProt P35372, whole entry": "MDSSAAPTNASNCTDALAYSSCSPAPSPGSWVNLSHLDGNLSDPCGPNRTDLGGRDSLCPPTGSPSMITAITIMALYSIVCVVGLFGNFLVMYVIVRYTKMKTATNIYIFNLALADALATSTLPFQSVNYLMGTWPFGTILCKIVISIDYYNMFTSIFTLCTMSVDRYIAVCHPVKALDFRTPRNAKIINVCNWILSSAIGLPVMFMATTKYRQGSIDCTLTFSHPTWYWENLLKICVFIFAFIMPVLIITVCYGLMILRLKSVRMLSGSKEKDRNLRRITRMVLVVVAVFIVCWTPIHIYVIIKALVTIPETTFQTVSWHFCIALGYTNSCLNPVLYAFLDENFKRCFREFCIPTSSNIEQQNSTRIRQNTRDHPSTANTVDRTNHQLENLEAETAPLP"},
  "source": "paper PMC6692071",
  "about": "(Journal of medicinal chemistry, 2018)",
  "key": {"human κ opioid receptor [1]": {"molecular_target": "T1, human κ opioid receptor (Homo sapiens, UniProt P41145)", "test": "biochemical", "conditions": "for δ/κ: ratio of Ke values; for Kb: Ke κ, U69,593"}, "human κ opioid receptor [2]": {"molecular_target": "T1, human κ opioid receptor", "conditions": "mean ± SEM; cited from earlier work"}, "human δ opioid receptor [3]": {"molecular_target": "T2, human δ opioid receptor (Homo sapiens, UniProt P41143)", "test": "biochemical"}, "human μ opioid receptor [4]": {"molecular_target": "T3, human μ opioid receptor (Homo sapiens, UniProt P35372)", "test": "biochemical"}, "human μ opioid receptor [5]": {"molecular_target": "T3, human μ opioid receptor", "conditions": "mean ± SEM; cited from earlier work"}, "human δ opioid receptor [6]": {"molecular_target": "T2, human δ opioid receptor", "conditions": "mean ± SEM; cited from earlier work"}},
  "data": [
    {"smiles": "CC(C)[C@@H](CC1CCCCC1)NC(=O)[C@H]1Cc2ccc(O)cc2CN1C", "note": "[Compound 19, (3R)-N-[(1R)-1-(Cyclohexylmethyl)-2-methylpropyl]-7-hydroxy-2-methyl-1,2,3,4-tetrahydroisoquinoline-3-carboxamide]", "values": [
      {"measurement": "fold less potent κ opioid receptor antagonist than 1", "setting": "human κ opioid receptor [1]", "result": 30, "unit": "fold"},
      {"measurement": "δ/κ", "setting": "human κ opioid receptor [1]", "result": ">709"}
    ]},
    {"smiles": "CC1CCN(C[C@@H](NC(=O)[C@H]2Cc3ccc(O)cc3CN2)C(C)C)CC1", "note": "[4-MePDTic (43)]", "values": [
      {"measurement": "Ke κ, U69,593", "setting": "human κ opioid receptor [2]", "result": "0.37 ± 0.09", "unit": "nM"}
    ]},
    {"smiles": "CC(C)[C@@H](CC1CCCC1)NC(=O)[C@H]1Cc2ccc(O)cc2CN1", "note": "[Compound 13, (3R)-N-[(1R)-1-(Cyclopentylmethyl)-2-methylpropyl]-7-hydroxy-1,2,3,4-tetrahydroisoquinoline-3-carboxamide]", "values": [
      {"measurement": "Kb", "setting": "human κ opioid receptor [1]", "result": "0.058 to 0.64", "unit": "nM"}
    ]},
    {"smiles": "O=C(NCCC1CCCCC1)[C@H]1Cc2ccc(O)cc2CN1", "note": "[Compound 6, (3R)-N-(2-Cyclohexylethyl)-7-hydroxy-1,2,3,4-tetrahydroisoquinoline-3-carboxamide]", "values": [
      {"measurement": "Kb", "setting": "human δ opioid receptor [3]", "result": "> 3000", "unit": "nM"}
    ]},
    {"smiles": "CC(C)[C@@H](CC1CCCCC1)NC(=O)[C@H]1Cc2ccc(C(N)=O)cc2CN1", "note": "[Compound 9, (3R)-N^3-[(1R)-1-(Cyclohexylmethyl)-2-methylpropyl]-1,2,3,4-tetrahydroisoquinoline-3,7-dicarboxamide]", "values": [
      {"measurement": "Kb", "setting": "human κ opioid receptor [1]", "result": "0.058 to 0.64", "unit": "nM"}
    ]},
    {"smiles": "CC(C)[C@H](CC1CCCCC1)NC(=O)[C@@H]1Cc2ccc(O)cc2CN1", "note": "[Compound 5, (3S)-N-[(1S)-1-(Cyclohexylmethyl)-2-methylpropyl]-7-hydroxy-1,2,3,4-tetrahydroisoquinoline-3-carboxamide]", "values": [
      {"measurement": "Kb", "setting": "human μ opioid receptor [4]", "result": "> 3000", "unit": "nM"}
    ]},
    {"smiles": "CC(C)[C@@H](CC1CCCC1)NC(=O)[C@@]1(C)Cc2ccc(O)cc2CN1", "note": "[Compound 20, (3R)-N-[(1R)-1-(Cyclopentylmethyl)-2-methylpropyl]-7-hydroxy-3-methyl-1,2,3,4-tetrahydroisoquinoline-3-carboxamide]", "values": [
      {"measurement": "δ/κ", "setting": "human κ opioid receptor [1]", "result": ">484"},
      {"measurement": "fold less potent at the κ opioid receptor than parent compound 13", "setting": "human κ opioid receptor [1]; relative to 13", "result": 107, "unit": "fold"}
    ]},
    {"smiles": "O=C(N[C@H](CC1CCCCC1)C1CC1)[C@H]1Cc2ccc(O)cc2CN1", "note": "[Compound 8, (3R)-N-[(1R)-2-Cyclohexyl-1-cyclopropylethyl]-7-hydroxy-1,2,3,4-tetrahydroisoquinoline-3-carboxamide]", "values": [
      {"measurement": "Kb", "setting": "human δ opioid receptor [3]", "result": "> 3000", "unit": "nM"}
    ]},
    {"smiles": "CC(C)[C@@H](CN1CC[C@@](C)(c2cccc(O)c2)[C@@H](C)C1)NC(=O)[C@H]1Cc2ccc(O)cc2CN1", "note": "[JDTic, (3R)-1,2,3,4-tetrahydro-7-hydroxy-N-[(1S)-1-[[(3R,4R)-4-(3-hydroxy-phenyl)-3,4-dimethyl-1-piperidinyl]methyl]-2-methylpropyl]-3-iso-quinolinecarboxamide]", "values": [
      {"measurement": "Ke μ, DAMGO", "setting": "human μ opioid receptor [5]", "result": "25 ± 4", "unit": "nM"},
      {"measurement": "Ke δ, DPDPE", "setting": "human δ opioid receptor [6]", "result": "74 ± 2", "unit": "nM"}
    ]},
    {"smiles": "O=C(N[C@H](CC1CCCCC1)c1ccccc1)[C@H]1Cc2ccc(O)cc2CN1", "note": "[Compound 7, (3R)-N-[(1R)-2-Cyclohexyl-1-phenylethyl]-7-hydroxy-1,2,3,4-tetrahydroisoquinoline-3-carboxamide]", "values": [
      {"measurement": "Kb", "setting": "human δ opioid receptor [3]", "result": "> 3000", "unit": "nM"}
    ]},
    {"smiles": "CC1CCC(C[C@@H](NC(=O)[C@H]2Cc3ccc(O)cc3CN2)C(C)C)CC1", "note": "(stereo partly drawn) [Compound 18, (3R)-7-Hydroxy-N-{(1R)-2-methyl-1-[(4-methylcyclohexyl)-methyl]propyl}–1,2,3,4-tetrahydroisoquinoline-3-carboxamide]", "values": [
      {"measurement": "Kb", "setting": "human δ opioid receptor [3]", "result": "> 3000", "unit": "nM"}
    ]},
    {"smiles": "CC(C)[C@@H](CC1CCCCCC1)NC(=O)[C@H]1Cc2ccc(O)cc2CN1", "note": "[Compound 14, (3R)-N-[(1R)-1-(Cycloheptylmethyl)-2-methylpropyl]-7-hydroxy-1,2,3,4-tetrahydroisoquinoline-3-carboxamide]", "values": [
      {"measurement": "Kb", "setting": "human κ opioid receptor [1]", "result": "0.058 to 0.64", "unit": "nM"}
    ]}
  ]
}
